The list is not random: actives were taken first. Their share in the collection is about 2.2%.
Nrf2 ARE act: Nrf2 pathway activation; AREc32 ARE-luciferase reporter (MCF7-derived line), luminescence, 24 h; Potency, µM (series often up to 46.1 µM), for inactives: top-dose activation, usual class: activators; AID 624171; 410,000 compounds, 0.31% hits; further: potency means the concentration at half of the fitted maximal effect; % of control where 0% means no effect; nearly all actives have a fitted effect of over 65% in size
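Quantitative high-throughput format: AREc32 reporter cells, 1000 per well, received compound by pin transfer and were incubated 24 hr at 37 deg C, 5% CO2, before Steady-Glo luminescence detection.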
A549 viability: counter-screen for Nrf2 inhibitors: cytotoxicity in A549 cells | A549 ARE-Fluc cells, CellTiter-Fluor viability, 18-24 h | Potency, µM (titrated, usually from 46 µM), inactives show at the top dose activity change, negative = cytotoxicity, actives largely listed as inhibitors | 390,000 compounds, 0.16% hits | AID 504648; further: potency means the concentration at half of the fitted maximal effect; on the % scale 0 is the no-effect control and ±100 the full control effect
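Cytotoxicity counterscreen: CellTiter-Fluor fluorescence was measured in A549 ARE_Fluc cells after 18-24 h of compound exposure in a concentration series. The subsequent BugLite luminescent read reports ARE-luciferase activity.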
PI4K2A block: PI4K2A (human) kinase inhibition. AID 1346378. purified PI4K2A, ADP-Glo luminescence, 1 h; hits give low values. 420,000 compounds, 0.13% hits. Q9BTU6. activity change, negative = inhibition, % at 76.9 µM; in the data active means activity change below about -50%; inconclusive means mostly about -30% to -49%;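 further: -100% = wells without enzyme as full effect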
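PI4K2A activity was measured by ADP-Glo luminescence: enzyme (4 ug/mL stock) and phosphatidylinositol (1.2 mM stock) in Tris pH 7.5/MgCl2/EGTA/Triton X-100 buffer were reacted with ATP (300 microM stock) for one hour at ambient temperature.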
Nrf2 inh: inhibitors of Nrf2 signaling | A549 ARE-Fluc reporter, luciferase luminescence, 18-24 h | Potency, µM (titrated, usually from 46 µM), for inactives: top-dose activity change, negative = inhibition, hits mostly inhibitors | 360,000 compounds, 2.1% hits | AID 504444; further: potency means the concentration at half of the fitted maximal effect; on the % scale 0 is the no-effect control and ±100 the full control effect; nearly all actives have a fitted effect of over 60% in size
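Nrf2 activity is the BugLite luminescence, read 15 min after reagent at room temperature, following CellTiter-Fluor cytotoxicity readout (30 min, 37C). Compound titrations were applied for 18-24 h to 5000 A549 ARE_Fluc cells/well in 5% FBS OPTI-MEM.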
GALK inhibitor: inhibitors of human galactokinase; P51570; Purified GALK, Kinase-Glo residual ATP luminescence; Potency, µM (series often up to 57.5 µM), for inactives: at the top dose activity change, negative = inhibition, hits mostly inhibitors; 270,000 compounds, 0.007% hits; further: potency means the concentration at half of the fitted maximal effect; on the % scale 0 is the no-effect control and ±100 the full control effect
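The enzyme phosphorylates galactose (100 uM) using ATP (35 uM); inhibition is detected as higher residual ATP, quantified by bioluminescence after 1 h reaction at room temperature, pH 8.0.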
miR-21 reporter: raises the signal of a miR-21 reporter; HeLa miR-21 FLuc reporter, luciferase, 48 h; Potency, µM (series often up to 38.3 µM), inactives show top-dose reporter change, positive = more light; 340,000 tested, under 10 active; active = well fitted rising curve with a large enough effect; inconclusive = small, poorly fitted or top-dose-only effect; inactive = no such curve, though single readings can be large or run the other way;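 also: % of control where 0% means no effect; miR-21 action dims this reporter so a rising signal means less miR-21 action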
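Using DMEM plus 10% FBS, HeLa miR-21-FLuc cells are incubated with test compounds (final up to about 40uM) for 48 hours; firefly luciferase signal is then imaged following reagent-mediated lysis.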
* hit, by the source's call. Unless noted, the call rests on the fitted dose curve; in most records, active means well fitted curve in the direction sought with a large enough effect; inconclusive means small, poorly fitted or top-dose-only effect, or another doubt; inactive means no such curve, though single readings can be large; an effect the other way counts as inactive or inconclusive.

Sample of the layout:
How did COc1ccc(C2=Nn3c(nnc3-c3ccc(OC)c(OC)c3)SC2)c(OC)c1 do in these assays?
A549 viability: -6.0%; Nrf2 inh: inconclusive

Results for O=C(NCCSCc1ccccc1)c1ccc(C2SCC(=O)N2Cc2ccccc2)cc1 (stereo not drawn) ?
Nrf2 ARE act: 3.1%; A549 viability: -6.8%; PI4K2A block: -0.1; Nrf2 inh: 10.3µM*; GALK inhibitor: 0.1%; miR-21 reporter: 17.4%

How did O=c1c2ccccc2c(-c2ccc(O)cc2)nn1-c1cccc(C(F)(F)F)c1 do in these assays?
Nrf2 ARE act: -2.2%; A549 viability: -1.9%; PI4K2A block: -4.8; Nrf2 inh: 23.1µM*; GALK inhibitor: 0.6%; miR-21 reporter: 0.9%

Main list, from the first entry:
How did COc1ccc(C2=Nn3c(nnc3-c3ccc(OC)c(OC)c3)SC2)c(OC)c1 do in these assays?
A549 viability: -6.0%; Nrf2 inh: inconclusive

Results for O=C(NCCSCc1ccccc1)c1ccc(C2SCC(=O)N2Cc2ccccc2)cc1 (stereo not drawn) ?
Nrf2 ARE act: 3.1%; A549 viability: -6.8%; PI4K2A block: -0.1; Nrf2 inh: 10.3µM*; GALK inhibitor: 0.1%; miR-21 reporter: 17.4%

How did O=c1c2ccccc2c(-c2ccc(O)cc2)nn1-c1cccc(C(F)(F)F)c1 do in these assays?
Nrf2 ARE act: -2.2%; A549 viability: -1.9%; PI4K2A block: -4.8; Nrf2 inh: 23.1µM*; GALK inhibitor: 0.6%; miR-21 reporter: 0.9%

What do the screens show for `COC(=O)[C@H]1C[C@@]2(n3ccc4ccccc43)c3ccccc3N[C@H]2N1`?
PI4K2A block: -0.6

How did O=C1CC(c2cccc([N+](=O)[O-])c2)c2cc3c(cc2N1)CCC3 (stereo not drawn) do in these assays?
Nrf2 ARE act: 0.4%; A549 viability: inconclusive; PI4K2A block: 3.9; Nrf2 inh: 14.6µM*; GALK inhibitor: 9.5%; miR-21 reporter: 25.6%

How did COc1cccc(Cn2ncc3c4sc(C)cc4n(C)c3c2=O)c1 do in these assays?
A549 viability: -3.0%; Nrf2 inh: -19.9%

How did O=C(NCc1ccc(Cl)cc1)C(=O)NCC(c1cccnc1)N1CCN(c2ccc(F)cc2)CC1 (stereo not drawn) do in these assays?
Nrf2 ARE act: 4.5%; A549 viability: -20.7%; PI4K2A block: 0.8; Nrf2 inh: 20.6µM*; GALK inhibitor: -2.0%; miR-21 reporter: 26.8%

How did O=C(CCS(=O)(=O)c1ccc(F)cc1)Nc1nc(-c2ccccn2)cs1 do in these assays?
Nrf2 ARE act: inconclusive; A549 viability: -2.9%; PI4K2A block: -5.9; Nrf2 inh: 5.1%; GALK inhibitor: 7.4%; miR-21 reporter: 20.3%

How did CC(Oc1ccc(F)cc1)C(=O)Nc1nc(-c2ccccn2)cs1 (stereo not drawn) do in these assays?
Nrf2 ARE act: 9.0%; A549 viability: inconclusive; PI4K2A block: -3.0; Nrf2 inh: 20.6µM*

Results for CC1CCN(CC(CS(=O)(=O)c2ccc([N+](=O)[O-])cc2)N2CCC(C)CC2)CC1 (stereo not drawn) ?
Nrf2 ARE act: 2.6%; A549 viability: inconclusive; PI4K2A block: 11.5; Nrf2 inh: 23.1µM*; GALK inhibitor: 3.6%; miR-21 reporter: 2.1%

How did COc1cc(NC(=O)C(OC(=O)CNC(=O)c2ccccc2)c2ccccc2)c(OC)cc1Cl (stereo not drawn) do in these assays?
A549 viability: 6.9%; Nrf2 inh: 7.5%

How did COc1cc(NC(=O)c2ccc([N+](=O)[O-])o2)ccc1NC(=O)c1cccs1 do in these assays?
Nrf2 ARE act: 11.2µM*; A549 viability: 23.1µM*; PI4K2A block: -3.2; Nrf2 inh: 5.8%; GALK inhibitor: 10.6%; miR-21 reporter: 8.2%

What do the screens show for `COc1ccc(-c2cc3ccccc3oc2=O)cc1NC(=O)c1ccc(Br)o1`?
Nrf2 ARE act: 3.3%; A549 viability: -14.9%; PI4K2A block: 1.6; Nrf2 inh: inconclusive; GALK inhibitor: 1.7%; miR-21 reporter: -25.5%

What do the screens show for `COc1cc(NC(=O)c2ccccc2Cl)ccc1NC(=O)c1cccs1`?
Nrf2 ARE act: 2.8%; A549 viability: 5.7%; PI4K2A block: 3.5; Nrf2 inh: inconclusive; GALK inhibitor: -6.3%; miR-21 reporter: -60.0%

How did COc1cc(NC(=O)c2cc3ccccc3cc2OC)ccc1NC(=O)c1cccs1 do in these assays?
Nrf2 ARE act: -0.9%; A549 viability: -9.5%; PI4K2A block: -9.1; Nrf2 inh: 5.17µM*; GALK inhibitor: 5.8%; miR-21 reporter: 4.8%

What do the screens show for `CC(=O)Nc1ccc(NS(=O)(=O)c2cc([N+](=O)[O-])ccc2C)cc1`?
Nrf2 ARE act: 0.3%; A549 viability: 3.2%; PI4K2A block: -6.2; Nrf2 inh: 17.8%; GALK inhibitor: -0.9%; miR-21 reporter: -1.8%

What do the screens show for `COc1ccc(-c2cc3ccccc3oc2=O)cc1NC(=O)c1ccc([N+](=O)[O-])o1`?
Nrf2 ARE act: 6.31µM*; A549 viability: -13.6%; PI4K2A block: -5.9; Nrf2 inh: inconclusive; GALK inhibitor: 7.2%; miR-21 reporter: -14.2%

How did CC(=O)Nc1ccc(S(=O)(=O)Nc2ccc(C)c([N+](=O)[O-])c2)cc1 do in these assays?
Nrf2 ARE act: -0.5%; A549 viability: -8.1%; PI4K2A block: -0.9; Nrf2 inh: 25.9µM*; GALK inhibitor: -4.3%; miR-21 reporter: 4.4%

How did CC(C)CCNC(=O)C1COC(O)(C(Cc2ccccc2)NC(=O)[C@@H](NC(=O)OCc2ccccc2)C(C)C)CN1 (stereo partly drawn) do in these assays?
PI4K2A block: -5.6

What do the screens show for `COc1cccc(-c2nnc3n2N=C(c2ccc(Cl)cc2)CS3)c1`?
PI4K2A block: 3.7

What do the screens show for `C[C@H]1[C@H](c2ccccc2)OC(O)([C@H](Cc2ccccc2)NC(=O)OC(C)(C)C)CN1C` (stereo partly drawn)?
PI4K2A block: 0.2

Results for FC(F)(F)c1cc(CNC2CCC23CCCCC3)ccc1Cl (stereo not drawn) ?
PI4K2A block: -0.3

What do the screens show for `Cc1ccc(NC(=O)c2cccs2)cc1[N+](=O)[O-]`?
Nrf2 ARE act: 14.1µM*; A549 viability: -10.8%; PI4K2A block: 3.5; Nrf2 inh: inconclusive; GALK inhibitor: 0.5%; miR-21 reporter: -0.9%

How did Cc1cccc(NS(=O)(=O)c2ccc(NC(=O)CN(c3cc([N+](=O)[O-])ccc3C)S(C)(=O)=O)cc2)c1 do in these assays?
Nrf2 ARE act: 2.7%; A549 viability: inconclusive; PI4K2A block: 2.6; Nrf2 inh: 18.4µM*; miR-21 reporter: inconclusive

Results for CCn1c2ccccc2c2cc(NC(=O)COC(=O)c3cc(F)cc(F)c3)ccc21 ?
PI4K2A block: -2.5

What do the screens show for `CCN1C(=O)/C(=C2/C=Cc3cc(C)ccc3N2CC)N(C)C1=S`?
Nrf2 ARE act: 0.3%; A549 viability: 23.1µM*; PI4K2A block: -20.4; Nrf2 inh: inconclusive; GALK inhibitor: 6.9%; miR-21 reporter: -4.2%

What do the screens show for `CC1CCC(C(C)C)C(OC(=O)Cn2c(-c3ccc(Cl)cc3)[n+](C)c3ccccc32)C1` (stereo not drawn)?
Nrf2 ARE act: -3.4%; A549 viability: inconclusive; PI4K2A block: -5.4; Nrf2 inh: inconclusive; GALK inhibitor: 0.2%; miR-21 reporter: inconclusive

High-throughput results as filed in PubChem BioAssay.
